For 3 molecules, inhibition results are on record in PubChem BioAssay AID1259251 (The Scripps Research Institute Molecular Screening Center, 2017).

By UniProt entry, the sequences of proteins in these tests, tags left out.
UniProt O75385, whole entry: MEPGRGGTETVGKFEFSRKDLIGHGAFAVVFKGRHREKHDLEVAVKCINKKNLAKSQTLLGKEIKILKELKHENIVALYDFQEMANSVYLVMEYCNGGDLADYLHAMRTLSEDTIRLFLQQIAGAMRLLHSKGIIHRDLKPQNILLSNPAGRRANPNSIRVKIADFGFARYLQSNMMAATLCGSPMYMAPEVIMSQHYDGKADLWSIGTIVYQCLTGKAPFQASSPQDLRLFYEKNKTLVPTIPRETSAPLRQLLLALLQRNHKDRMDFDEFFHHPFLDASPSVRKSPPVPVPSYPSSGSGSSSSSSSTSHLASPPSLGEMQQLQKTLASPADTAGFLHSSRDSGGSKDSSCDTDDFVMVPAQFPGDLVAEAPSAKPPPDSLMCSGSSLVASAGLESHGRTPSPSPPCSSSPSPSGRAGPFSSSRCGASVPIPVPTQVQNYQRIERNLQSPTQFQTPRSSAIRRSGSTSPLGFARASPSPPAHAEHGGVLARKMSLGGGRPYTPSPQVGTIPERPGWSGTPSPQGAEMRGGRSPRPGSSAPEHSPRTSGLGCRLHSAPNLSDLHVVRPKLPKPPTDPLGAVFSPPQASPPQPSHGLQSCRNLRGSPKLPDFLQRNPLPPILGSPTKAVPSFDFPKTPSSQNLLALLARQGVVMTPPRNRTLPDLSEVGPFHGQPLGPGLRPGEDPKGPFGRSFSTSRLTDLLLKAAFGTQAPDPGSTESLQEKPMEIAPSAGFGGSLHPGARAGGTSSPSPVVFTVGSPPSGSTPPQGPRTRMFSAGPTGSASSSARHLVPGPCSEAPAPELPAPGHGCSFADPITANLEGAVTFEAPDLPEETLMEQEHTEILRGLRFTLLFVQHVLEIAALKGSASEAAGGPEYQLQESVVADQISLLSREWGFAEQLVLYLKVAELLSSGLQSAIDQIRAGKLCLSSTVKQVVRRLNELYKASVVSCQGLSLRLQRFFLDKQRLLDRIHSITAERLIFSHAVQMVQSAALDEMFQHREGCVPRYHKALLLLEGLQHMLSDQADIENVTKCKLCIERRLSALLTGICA

The list shows a part of the results, in another mix than the full data. Active and inactive are the calls of the source. No stated cut-off is given here; in the data, active means inhibition above about 43%; inactive means the rest.

This assay deals with Serine/threonine-protein kinase ULK1 (Homo sapiens) (UniProt O75385). In words: ULK1 kinase inhibitors, primary screen, biochemical, AlphaScreen (AID 1259251).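 Further: 0% = median of compound wells and 100% = no enzyme.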 Particulars: AlphaScreen Atg13 phosphorylation by ULK1, luminescence; at 5.96 µM; hits give high values. For orientation: Alpha assays give light when donor and acceptor beads are brought close together.
Take `CCC(=O)N(c1ccccc1)C1(COC)CCN(CCc2cccs2)CC1`: the inhibition was inactive: 8.99%.

For the molecule `CCC(=O)N(c1ccccc1)C1(COC)CCN(CCn2nnn(CC)c2=O)CC1`, the inhibition was inactive: 4.69%.

Consider `CN(CCCl)CCCl`, for which the inhibition was inactive: -4.39%.

Broadly, the inhibition is the drop in the measured response relative to a control, in per cent.
